Literature values as cited in patent US7211241B2, “Cascade polymer complexes, process for their production and pharmaceutical agents containing said complexes” (Schering Aktiengesellschaft, priority 1995, dated 2007).

Settings: rats, cited from earlier work

albumin-GdDTPA: macromolecular contrast medium of the prior art (Radiology 1987; 162: 205)
concentration in the liver tissue (24 hours after intravenous injection): ~30 % of the dose
dose eliminated (in 24 hours, intravenous injection): 20 % of the dose
